Molecular target: Kappa-type opioid receptor (Cavia porcellus, UniProt P41144)
Assay: Displacement of [3H]U69593 from Sprague-Dawley rat kappa opioid receptor in guinea pig cerebella by liquid scintillation counting

By UniProt entry, the sequences of proteins in these tests, tags left out. Where a name states a change or a piece, a line headed by the entry shows the natural chain unless it says otherwise.
UniProt P41144: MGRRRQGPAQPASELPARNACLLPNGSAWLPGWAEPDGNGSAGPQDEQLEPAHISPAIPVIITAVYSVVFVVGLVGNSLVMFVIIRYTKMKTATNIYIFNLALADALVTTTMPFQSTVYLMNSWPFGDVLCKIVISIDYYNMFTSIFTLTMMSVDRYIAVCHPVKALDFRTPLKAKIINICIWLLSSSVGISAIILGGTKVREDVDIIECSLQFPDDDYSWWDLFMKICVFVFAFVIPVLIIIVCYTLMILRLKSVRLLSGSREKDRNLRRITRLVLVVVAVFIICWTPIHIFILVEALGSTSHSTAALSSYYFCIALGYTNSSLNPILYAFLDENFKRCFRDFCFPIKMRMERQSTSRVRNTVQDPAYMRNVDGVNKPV

In the case of `CN(C(=O)Cc1ccc(Cl)c(Cl)c1)[C@@H]1CCCC[C@H]1N1CCCC1`, the Ki is reported as 1.1 nM.
